For this data set, the system named is Jurkat cells. The experiment in a line: Cytotoxicity against Jurkat cells (CellTiter Blue). Format: cell-based, human. As to the method: The cytotoxicities of selected peptides against human T-lymphocytes, in particular Jurkat cells, was determined by growing 100 uL Jurkat cells in RPMI (approx. 5×10^5 cells/ml density) overnight at 37° C. under 5% CO2 atmosphere, in microtiter plate wells, in the presence and absence of peptides. Control reactions either lacked peptide (negative cytotoxicity control), or contained a buffer to completely lyse Jurkat cells (positive cytotoxicity control). The viabilities of cells were then determined by addition of 20 uL CellTiter Blue dye (Promega) to each well, and incubation of cells for a further 3 hrs at 37° C. Fluorescence values were measured for 1 sec at 540 nm/615 nm, and expressed relative to fluorescence values for negative and positive cytotoxicity control samples. Comparison with a fully lysed control allowed the calculation of a percentage killing for each peptide concentration. The MCC10 value was calculated as the minimum peptide concentration required to induce 10% cytotoxicity.
For orientation: Resazurin is reduced to fluorescent resorufin, in cell work by metabolically active cells.

The text below walks through data of patent US20110262508A1, “ANTIMICROBIAL COMPOSITIONS, FORMULATIONS AND USES THEREOF” (priority 2007, published 2011).

Turning to tachyplesin-1 [reference compound], the “Percent Jurkat cells killed at 20 μM” value was 10%.
